In patent US10059688B2, “Protein tyrosine kinase modulators and methods of use” (BETTA PHARMACEUTICALS CO., LTD., priority 2013, dated 2018) one finds IC50 data, which are given here for 1 compound.

The assay concerns A549 (EGFR WT) NSCLC cells. Nature of the assay: Cell proliferation assay (MTS cell viability). The assay is classed as cell-based. The conditions noted are these: Homo sapiens, 72 h, 3 days of exposure.

In turn, `COc1cc(Nc2ncc(Cl)c(Nc3ccccc3C(=O)C(=O)N(C)C)n2)ccc1N1CCN(C)CC1` [Example 61, 2-(2-(5-chloro-2-(3-methoxy-4-(4-methylpiperazin-1-yl)phenylamino)pyrimidin-4-ylamino)phenyl)-N,N-dimethyl-2-oxoacetamide] showed an IC50 of 740 nM.
